Measurements reported in patent US20120088698A1, “WATER IN OIL EMULSION, METHOD FOR THE PRODUCTION THEREOF” (CLARIANT FINANCE (BVI) LIMITED, priority 2009, published 2012).

Legend:
[1] = water/octanol, slow stirring
[2] = system: Artica Tonsa
[3] = Biodegradability, OECD 306 test; details: OECD 306, 28 days
[4] = system: Corophium Volulator

## N-oleyl(pyrroildine-2-one)-4-carboxylic acid/morpholine distillation residue salt [OleylPyCOO-AmixM]
[1]
  log Pow: 1.6
[2]; 48 h
  48 h NOEC: <1.0 mg/L
[2]; 48 h, first figure of LC90/100
  48 h LC90: 3.0 µg/mL
[2]; 48 h, second figure of LC90/100
  48 h LC100: 9.1 mg/L
[2]; 48 hrs
  LC50: 1.6 µg/mL
[3]
  Degradation (biodegradability): 70%
[4]
  LC5@10 days: 693 mg/kg
